PubChem BioAssay AID889 (National Center for Advancing Translational Sciences (NCATS), 2007)
Only a part is listed here, and it is no random draw. Some of these compounds have results that are not shown, active ones among them. Results filed as inconclusive are left out. Calls of active or inactive are those of the source. Calls come from the whole dose curve; as a rule, active = well fitted inhibition curve with a large enough effect in the main read-out, with a control signal flat (not every such curve was filed as active); inconclusive = small, poorly fitted or top-dose-only effect, or a change in a side signal; inactive = flat fitted curve, though single readings scatter.
Note: % of control where 0% means no effect.

Amino acid sequences for entries named in this document (tags omitted). Residues count along the entry.
UniProt P55210, 24-198 limits assumed: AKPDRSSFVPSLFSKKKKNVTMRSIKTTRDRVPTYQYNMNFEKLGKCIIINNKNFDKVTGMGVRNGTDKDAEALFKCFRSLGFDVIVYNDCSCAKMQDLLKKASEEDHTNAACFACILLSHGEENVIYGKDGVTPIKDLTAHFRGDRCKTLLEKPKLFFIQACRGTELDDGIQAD
UniProt P55210, 207-303 limits assumed: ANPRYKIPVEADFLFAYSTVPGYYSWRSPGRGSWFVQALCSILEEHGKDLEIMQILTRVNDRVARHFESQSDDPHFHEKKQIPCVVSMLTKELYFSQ

The compounds below were run against Caspase-7 (Homo sapiens) (UniProt P55210) (assay: qHTS Assay for Allosteric/Competitive Inhibitors of Caspase-7). Details: recombinant caspase-7, Ac-DEVD-AFC fluorescence rate; at 11.5 µM (top of the series) unless noted.
From the text: NIH Molecular Libraries Screening Centers Network [MLSCN]
NIH Chemical Genomics Center [NCGC]
PI Name: Dr. James Wells,
Dr. Enrique Perez-Paya, Dr.Janice Williams, Dr. Dennis Wolan, a person
The caspases (Cysteine Aspartyl Protease) comprise a related family of 14 dimeric proteases that are critical mediators of apoptosis (programmed cell death) and inflammation. The caspases represent an important class of drug targets for stroke, ischemia, cancer and inflammatory diseases. […] One goal of this project was to identify compounds that act as allosteric inhibitors via stabilizing the procaspase form of the enzyme. Previous work in Well's laboratory has shown that such allosteric inhibitors can be identified and these act by binding at the dimer interface of enzyme (Hardy, Lam et al., 2004).
The biochemical assay was configured using purified caspase 7 at a high enzyme concentration to promote formation of the homodimers and thus facilitate the identification of allosteric inhibitors. The overall goal was to identify reversible inhibitors with better drug-like properties than the currently available set of aspartyl-containing peptidomimetics that covalently bind the active site. Caspase 7 was assayed using the profluorescent substrate Ac-DEVD-AFC. After initiation of the assay with substrate the plates were rapidly read using an automated robotic system (Kalypsys, Inc.) to maintain consistent timing. A kinetic mode of detection was used where the initial rate was collected (estimated final product formation was ~10%). Compounds were screened as a concentration-titration series that ranged from 57 uM to 0.7 nM. Below is the protocol used for caspase 7.
NCGC Assay Protocol Summary:
Caspase 7 was prepared in buffer (50 mM HEPES pH 7.5, 50 mM KCl, 200 mM NaCl, 10 mM DTT, 0.1% CHAPS) at a concentration of 66.6 nM and 3 uL was dispensed to all wells using black solid Kalypsys 1536-well plates. 20 nL of DMSO containing compounds was added using a pin-tool (Kalypsys Inc.) to columns 5-48. Then 20 nL of DMSO solution from a control plate was added to columns 1-4. Controls were: Column 1, 16 point titration with each concentration in duplicate (1:1 dilutions in DMSO; final starting concentration was 57 uM) of the caspase 7 inhibitor Ac-DEVD-CHO (Alexis Biochemicals); Column 2, a 16 point titration with each concentration in duplicate of the free AFC fluorophore prepared in DMSO (Alexis Biochemicals), final starting was 40 uM; Column 3 neutral (DMSO only) control; Column 4: DMSO alone, to serve as a negative control (no substrate was added). Then 1 uL of 20 uM the substrate Ac-DEVD-AFC (Alexis Biochemicals) prepared in the same buffer was dispensed to all wells except columns 2 and 4 and the plates were immediately transferred (< 1 min) to the Viewlux. The plates were then exposed using 405 nm excitation/520 nm emission filters for 4 sec and read at 20 sec intervals for 3 min. […]
Concentration-response curves were fitted to the data calculated from slope of the linear regression of fluorescent intensity versus time (the rate). The concentration-effect curves were then classified based on curve quality (r2), response magnitude and degree of measured activity. […] Inconclusive compounds had appreciable concentration-dependent effects on both the measured rate and the interpolated basal fluorescence intensity at the start of the reaction but where the basal fluorescent intensity was marginal (e.g. < 10-fold). […]
With `CN1CCC[C@H](OC(=O)[C@](O)(c2ccccc2)C2CCCC2)C1` the activity change, negative = inhibition was inactive: -2.48%. In the case of `O=C(OC1CN2CCC1CC2)C(CO)(c1ccccc1)c1ccccc1` (stereo not given), the activity change, negative = inhibition is reported as inactive: -3.7% [at 57.5 µM]. With `CN1CC[C@H](OC(=O)[C@](O)(c2ccccc2)C2CCCC2)C1` the activity change, negative = inhibition was inactive: 0.706%. For `C=C(C)C#C[C@@](O)(C(=O)OC1CCN(C)CC1)c1ccccc1`, the activity change, negative = inhibition was inactive: 0.533%. With `CN(C)c1cccc(C(=O)NCC2(N(C)C)CCCCC2)c1` the activity change, negative = inhibition was inactive: -1.51% [at 57.5 µM].
